Measured values published in BindingDB's records for PubMed 9694962 (Memorial Sloan-Kettering Cancer Center, 1998).
pKi: −log10 of the molar value. Several values for one entry are separate records, joined by “and”; a condition that tells them apart may be missing. Equal values may be shown once.

Amino acid sequences for entries named in this document (tags omitted).
UniProt P42866, whole entry: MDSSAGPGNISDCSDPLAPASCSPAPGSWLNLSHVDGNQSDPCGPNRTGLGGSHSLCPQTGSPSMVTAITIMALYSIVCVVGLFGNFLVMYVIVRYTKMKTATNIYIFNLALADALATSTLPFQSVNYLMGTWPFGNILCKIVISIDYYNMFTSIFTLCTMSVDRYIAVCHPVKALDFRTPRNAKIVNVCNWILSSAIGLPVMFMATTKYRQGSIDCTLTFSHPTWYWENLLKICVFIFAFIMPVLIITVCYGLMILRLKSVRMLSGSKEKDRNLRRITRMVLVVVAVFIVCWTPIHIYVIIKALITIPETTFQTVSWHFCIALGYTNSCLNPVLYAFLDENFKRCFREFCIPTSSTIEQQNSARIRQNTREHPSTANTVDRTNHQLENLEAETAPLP
UniProt P33535, whole entry: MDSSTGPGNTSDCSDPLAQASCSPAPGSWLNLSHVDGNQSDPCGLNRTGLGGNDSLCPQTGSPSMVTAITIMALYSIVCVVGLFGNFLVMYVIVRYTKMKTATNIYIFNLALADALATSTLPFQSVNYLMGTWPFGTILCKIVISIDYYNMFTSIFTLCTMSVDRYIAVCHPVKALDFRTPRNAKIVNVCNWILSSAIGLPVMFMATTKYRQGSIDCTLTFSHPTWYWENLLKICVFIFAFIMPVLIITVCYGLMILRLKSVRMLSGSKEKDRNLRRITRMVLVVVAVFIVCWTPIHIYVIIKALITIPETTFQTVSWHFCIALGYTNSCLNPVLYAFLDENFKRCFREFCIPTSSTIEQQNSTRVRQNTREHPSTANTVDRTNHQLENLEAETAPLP

Experiments:
Mu-type opioid receptor [1] = target: Mu-type opioid receptor (Mus musculus, UniProt P42866)
Mu-type opioid receptor [2] = target: Mu-type opioid receptor (Rattus norvegicus, UniProt P33535)

Compound | pKi (Mu-type opioid receptor [1]) | pKi (Mu-type opioid receptor [2])
CC(C)C[C@H](NC(=O)[C@H](Cc1ccccc1)NC(=O)CNC(=O)CNC(=O)[C@@H](N)Cc1ccc(O)cc1)C(=O)N[C@@H](CCCNC(=N)N)C(=O)N[C@@H](CCCCN)C(=O)N[C@@H](Cc1ccc(O)cc1)C(=O)N1CCC[C@H]1C(=O)N[C@@H](CCCCN)C(=O)O [CB0427223] | 8.44 and 8.67 | –
C[C@@H](NC(=O)[C@@H](N)Cc1ccc(O)cc1)C(=O)NCC(=O)N(C)[C@@H](Cc1ccccc1)C(=O)NCCO [[tyrosyl-3,5-3H(N)]-D-Ala2-Mephe4-glyol5-enkephalin] | – | 9.21 and 8.83
